The other results are listed elsewhere or left out.

For this assay, the system named is A. baumannii ATCC 17978. The experiment in a line: relative growth (fraction of control); higher = less inhibition. The note with it: 50 µM.
In turn, `O=C(C[C@@H]1C=C[C@H](NC(=O)c2cccnc2)[C@H](CO)O1)NCc1ccncn1` returned a relative growth of 0.867.

`COc1ccc([Si](C)(C)[C@@H]2[C@@H](CCn3cc([C@H](O)c4ccccc4)nn3)O[C@]3(C(=O)N(C)c4c(Br)cc(C)cc43)[C@H]2C)cc1`: the relative growth was 1.23.

Take `COc1ccc2ccccc2c1-c1c(OC)ccc2ccccc12`: the relative growth was determined as 1.15. The same measure for `COc1c2ccoc2cc2oc(=O)ccc12`: 1.03. As for `NC1CCN(Cc2nc3ccccc3[nH]2)CC1`, the relative growth was 0.982. Under `CCOC(=O)c1sc(=NN)[nH]c1C` stands 1; under `NCC[C@H]1CC[C@@H](NC(=O)NC2CCCCC2)[C@H](CO)O1`, 1.12. The same measure for `CN(C)CCCNC(=O)C[C@@H]1CC[C@@H](NS(=O)(=O)c2ccccc2)[C@H](CO)O1`: 1.04; for `CC(C)CC#Cc1ccc2c(c1)O[C@@H](CN(C)C(=O)c1cnccn1)[C@@H](C)CN([C@H](C)CO)S2(=O)=O`: 0.967. `Cc1ccccc1S(=O)(=O)N1C[C@H](O)COC[C@H]2O[C@@H](CC(=O)N3CCC(Cc4ccccc4)CC3)CC[C@@H]21` gave a relative growth of 0.873. Under `CCC(=O)O[C@H](CC(=O)O)C[N+](C)(C)C.[Cl-]` stands 0.947. `Cc1ccccc1S(=O)(=O)N1C[C@H](O)COC[C@H]2O[C@@H](CC(=O)NCc3ccccc3Cl)CC[C@@H]21` yielded a relative growth of 0.86. Under `CC[C@@H](Nc1n[nH]c(=O)[nH]c1=O)C(=O)OC` stands 1.08. Under `CCOC(=O)Cn1c(=O)c(C(N)=S)cn(C(C)C)c1=O` stands 0.937; under `CCN1C(=O)C(N=O)N(CC)C1=S` (stereo not given), 0.936; under `CN(C)CCC=C1c2ccccc2C=Cc2ccccc21.Cl`, 0.822. The same measure for `Cc1ccc(S(=O)(=O)N(C)C[C@H]2Oc3cc(C#Cc4ccccc4)ccc3S(=O)(=O)N([C@H](C)CO)C[C@@H]2C)cc1`: 1.1; for `N=c1c(C(N)=S)cnc2ccccn12`: 1.04. For the molecule `O=C1C(O)=C([C@H]2CC[C@H](c3ccc(Cl)cc3)CC2)C(=O)c2ccccc21`, the relative growth was 1.4. Under `CN1CCOC(c2ccccc2)c2ccccc2C1` (stereo not given) stands 0.868.

Take `COCC#Cc1ccc2c(c1)O[C@H](CN(C)S(=O)(=O)c1cccc(F)c1)[C@H](C)CN([C@H](C)CO)S2(=O)=O`: the relative growth was determined as 0.742.

Consider `C[C@@H]1CN([C@@H](C)CO)S(=O)(=O)c2ccc(C#C[C@@H](C)O)cc2O[C@H]1CN(C)C(=O)C1CCCCC1`, for which the relative growth came out at 0.949. Under `CN1CCCN=C1/C=C/c1cccc(O)c1.O=C(O)c1cc2ccccc2c(Cc2c(O)c(C(=O)O)cc3ccccc23)c1O` stands 1.03. Regarding `NCC[C@@H]1CC[C@@H](NC(=O)NC2CCCCC2)[C@@H](CO)O1`, the relative growth was determined as 0.926. The same measure for `c1ccc(-c2nc(-c3cccs3)[nH]c2-c2ccccc2)cc1`: 1.33.

For the origin of these results see published antibiotic growth screens (doi:10.1038/s41589-023-01349-8).
